{"sequences": {"note": "Amino acid sequences for entries named in this document (tags omitted).", "UniProt P19174, whole entry": "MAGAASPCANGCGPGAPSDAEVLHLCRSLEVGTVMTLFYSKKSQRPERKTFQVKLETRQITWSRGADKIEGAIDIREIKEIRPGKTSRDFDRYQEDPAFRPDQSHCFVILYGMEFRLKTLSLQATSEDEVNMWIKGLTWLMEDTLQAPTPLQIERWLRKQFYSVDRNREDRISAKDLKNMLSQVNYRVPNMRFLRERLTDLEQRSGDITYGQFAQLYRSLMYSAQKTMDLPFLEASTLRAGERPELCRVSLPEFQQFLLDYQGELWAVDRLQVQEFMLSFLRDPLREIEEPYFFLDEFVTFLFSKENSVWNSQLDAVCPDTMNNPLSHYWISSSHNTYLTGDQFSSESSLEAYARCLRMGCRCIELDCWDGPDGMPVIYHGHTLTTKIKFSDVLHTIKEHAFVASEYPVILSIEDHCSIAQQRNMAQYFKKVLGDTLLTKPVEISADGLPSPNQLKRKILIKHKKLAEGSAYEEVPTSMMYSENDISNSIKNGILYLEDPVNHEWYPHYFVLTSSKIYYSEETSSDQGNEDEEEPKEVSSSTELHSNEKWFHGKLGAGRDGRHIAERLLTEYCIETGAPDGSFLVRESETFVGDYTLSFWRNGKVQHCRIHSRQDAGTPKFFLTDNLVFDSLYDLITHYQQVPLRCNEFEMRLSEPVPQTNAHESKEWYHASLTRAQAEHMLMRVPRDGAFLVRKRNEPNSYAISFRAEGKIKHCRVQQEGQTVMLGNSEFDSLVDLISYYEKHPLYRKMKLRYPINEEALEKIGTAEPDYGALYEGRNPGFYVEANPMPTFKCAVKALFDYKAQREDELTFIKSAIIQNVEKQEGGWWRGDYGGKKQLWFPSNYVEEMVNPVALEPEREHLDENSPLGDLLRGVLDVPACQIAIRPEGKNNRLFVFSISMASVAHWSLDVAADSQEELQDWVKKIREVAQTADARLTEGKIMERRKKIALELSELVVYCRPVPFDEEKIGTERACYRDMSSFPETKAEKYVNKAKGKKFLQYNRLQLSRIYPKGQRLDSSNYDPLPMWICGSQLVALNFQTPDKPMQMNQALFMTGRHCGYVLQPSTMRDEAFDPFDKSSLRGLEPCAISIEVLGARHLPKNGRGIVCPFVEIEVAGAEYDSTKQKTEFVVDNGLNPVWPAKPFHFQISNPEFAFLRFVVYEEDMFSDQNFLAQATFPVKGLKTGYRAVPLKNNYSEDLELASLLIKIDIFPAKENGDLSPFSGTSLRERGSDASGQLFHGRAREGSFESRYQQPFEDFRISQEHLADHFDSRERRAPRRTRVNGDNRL"}, "source": "PubChem BioAssay AID720700", "about": "(The Scripps Research Institute Molecular Screening Center, 2013)", "note": "This is a selection; strong and weak results do not stand in their true shares. Some results for these compounds are left out of this collection, so the calls shown say nothing about other tests. Activity calls are given as the source filed them. Cut-off read from the data, not from the text of the source: active = inhibition above about 9.5%; inactive = the rest.", "data": [{"target": "1-phosphatidylinositol 4,5-bisphosphate phosphodiesterase gamma-1 (Homo sapiens) (UniProt P19174)", "test": "PLC-gamma1 enzyme inhibitors, primary screen, biochemical, fluorescence, purified enzyme (AID 720700)", "details": "purified PLC-gamma1, fluorogenic substrate, at 12.2 µM, stronger effect = higher value", "values": [{"smiles": "COc1cc(C(=O)NCC2(N(C)C)CCCCC2)c([N+](=O)[O-])cc1OC", "inhibition": "inactive: -1.52%"}, {"smiles": "CN(C)C1(CNC(=O)c2ccc(Br)cc2)CCCCC1", "inhibition": "inactive: -1.75%"}, {"smiles": "O=C(NCC1(N2CCCCC2)CCCCC1)c1cccc(Cl)c1", "inhibition": "inactive: 0.12%"}, {"smiles": "COc1ccc(Cl)cc1C(=O)NCC1(N(C)C)CCCCC1", "inhibition": "inactive: 5.37%"}, {"smiles": "COc1cccc(C(=O)NCC2(N3CCCCC3)CCCCC2)c1", "inhibition": "inactive: 0.07%"}, {"smiles": "O=C(OC1CN2CCC1CC2)C(CO)(c1ccccc1)c1ccccc1", "note": "(stereo not given)", "inhibition": "inactive: 1.55%"}, {"smiles": "O=C(OCCN1CCCC1)C(O)(c1ccccc1)c1ccccc1", "inhibition": "inactive: -0.95%"}, {"smiles": "CC(C)Oc1ccc(C(=O)NCC2(N(C)C)CCCCC2)cc1", "inhibition": "inactive: -2.54%"}, {"smiles": "CN(C)c1cccc(C(=O)NCC2(N(C)C)CCCCC2)c1", "inhibition": "inactive: -69.8%"}, {"smiles": "C=C(C)C#CC(O)(C(=O)OC1CCN(C)CC1)c1ccccc1", "note": "(stereo not given)", "inhibition": "inactive: 0.23%"}, {"smiles": "COc1ccc(Br)c(C(=O)NCC2(N3CCCCC3)CCCCC2)c1", "inhibition": "inactive: -0.12%"}, {"smiles": "CN1[C@@H]2CC[C@H]1CC(OC(=O)C(O)(c1ccccc1)c1ccccc1)C2", "note": "(stereo not given in full)", "inhibition": "inactive: -0.76%"}, {"smiles": "O=C(NCC1(N2CCCCC2)CCCCC1)c1cc([N+](=O)[O-])ccc1Cl", "inhibition": "inactive: -0.56%"}, {"smiles": "Cc1ccc(C(=O)NCC2(N3CCCCC3)CCCCC2)cc1", "inhibition": "inactive: 0.3%"}, {"smiles": "COc1cc(SC)ccc1C(=O)NCC1(N(C)C)CCCCC1", "inhibition": "inactive: 0.78%"}, {"smiles": "CCN(CC)CC(C)C(C)OC(=O)C(O)(c1ccccc1)c1ccccc1", "note": "(stereo not given)", "inhibition": "inactive: 0.91%"}, {"smiles": "CC(C)N1C(=O)CC2(CCN(CCOC(=O)C(O)(c3ccccc3)c3ccccc3)CC2)C1=O", "inhibition": "inactive: -0.66%"}, {"smiles": "CN(C)C1CCCC1OC(=O)C(O)(c1ccccc1)c1ccccc1", "note": "(stereo not given)", "inhibition": "inactive: 1.92%"}, {"smiles": "CN(C)c1ccc(C(=O)NCC2(N(C)C)CCCCC2)cc1", "inhibition": "inactive: 1.39%"}, {"smiles": "Cc1ccccc1C(=O)NCC1(N2CCCCC2)CCCCC1", "inhibition": "inactive: 2.38%"}, {"smiles": "COc1ccc(C(=O)NCC2(N(C)C)CCCCC2)cc1", "inhibition": "inactive: 0.33%"}, {"smiles": "O=C(NCC1(N2CCCCC2)CCCCC1)c1cccc(Br)c1", "inhibition": "inactive: 1.32%"}, {"smiles": "Cc1cc(C(=O)NCC2(N3CCCCC3)CCCCC2)ccc1[N+](=O)[O-]", "inhibition": "inactive: 1.83%"}, {"smiles": "O=C(NCC1(N2CCCCC2)CCCCC1)c1cc(F)c(F)cc1Cl", "inhibition": "inactive: 0.76%"}, {"smiles": "C=CCN1CCN(CCOC(=O)C(O)(c2ccccc2)c2ccccc2)CC1", "inhibition": "inactive: 5.03%"}]}]}
